Experimental data from PubChem BioAssay (NCI).
Some tests of the compounds listed are not included; inactive here does not mean inactive elsewhere.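 In this assay, cells in 96-well plates receive the compound at five concentrations for 48 hours. Endpoints are linearly interpolated between the surrounding concentrations. TGI marks complete inhibition of growth.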

Assays:
Experiment in all cases: NCI anticancer screen, dose series, 48 h
UACC-257 melanoma = system: UACC-257 melanoma
MDA-MB-435 = system: MDA-MB-435
HOP-92 NSCLC = system: HOP-92 NSCLC
M14 melanoma = system: M14 melanoma
PC-3 prostate = system: PC-3 prostate
OVCAR-8 ovarian = system: OVCAR-8 ovarian
UACC-62 melanoma = system: UACC-62 melanoma
HCT-15 colon = system: HCT-15 colon
SNB-19 CNS = system: SNB-19 CNS
SF-539 CNS = system: SF-539 CNS
T-47D breast = system: T-47D breast
ACHN renal = system: ACHN renal
NCI/ADR-RES ovarian = system: NCI/ADR-RES ovarian
NCI-H522 lung = system: NCI-H522 lung
NCI-H322M lung = system: NCI-H322M lung
HT29 colon = system: HT29 colon
SF-268 CNS = system: SF-268 CNS
OVCAR-3 ovarian = system: OVCAR-3 ovarian
MCF7 breast = system: MCF7 breast
K-562 leukemia = system: K-562 leukemia
CAKI-1 renal = system: CAKI-1 renal
SK-OV-3 ovarian = system: SK-OV-3 ovarian
HCT-116 colon = system: HCT-116 colon
A498 renal = system: A498 renal
EKVX NSCLC = system: EKVX NSCLC
TK-10 renal = system: TK-10 renal
MDA-MB-231 breast = system: MDA-MB-231 breast
SW-620 colon = system: SW-620 colon
SK-MEL-28 melanoma = system: SK-MEL-28 melanoma
OVCAR-5 ovarian = system: OVCAR-5 ovarian
UO-31 renal = system: UO-31 renal
SN12C renal = system: SN12C renal
HS 578T breast = system: HS 578T breast
OVCAR-4 ovarian = system: OVCAR-4 ovarian
786-0 renal = system: 786-0 renal
SF-295 CNS = system: SF-295 CNS
KM12 colon = system: KM12 colon
SK-MEL-2 melanoma = system: SK-MEL-2 melanoma
U251 CNS = system: U251 CNS
A549 NSCLC = system: A549 NSCLC
NCI-H226 lung = system: NCI-H226 lung
BT-549 breast = system: BT-549 breast
COLO 205 colon = system: COLO 205 colon
NCI-H460 lung = system: NCI-H460 lung
MALME-3M melanoma = system: MALME-3M melanoma
HOP-62 NSCLC = system: HOP-62 NSCLC
RXF 393 renal = system: RXF 393 renal
SK-MEL-5 melanoma = system: SK-MEL-5 melanoma
NCI-H23 lung = system: NCI-H23 lung
RPMI-8226 leukemia = system: RPMI-8226 leukemia
SNB-75 CNS = system: SNB-75 CNS
IGROV1 ovarian = system: IGROV1 ovarian
DU-145 prostate = system: DU-145 prostate
MDA-N = system: MDA-N

Measured: TGI

C=C(C)C#CC(O)(C(=O)OC1CCN(C)CC1)c1ccccc1 (centres undefined)
> 100 µM: all assays above
